Values of other authors as cited in patent US6713077B1, “Control of shoot/foliar feeding pests with pesticide seed treatments” (Monsanto Technology, LLC, priority 1999, dated 2004).

Key:
[1] = in words; cited from earlier work
[2] = 20° C.; cited from earlier work

5-1-benzyl-3-furylmethyl-d-cis(1R,3S,E)2,2-dimethyl-3-(2-oxo,-2,2,4,5 tetrahydro thiophenylidenemethyl)cyclopropane carboxylate [Kadethrin]
Water solubility [1]: practically insol. | Vapor pressure [2]: <0.1 mPa
